Test results published in ChEMBL document CHEMBL1145284, “Combined target-based and ligand-based drug design approach as a tool to define a novel 3D-pharmacophore model of human A3 adenosine receptor antagonists: pyrazolo[4,3-e]1,2,4-triazolo[1,5-c]pyrimidine derivatives as a key study” (J Med Chem, 2005).
pKi: −log10 of the molar value.

Chains of the proteins cited; added tags and fusions are not shown.
UniProt P0DMS8, whole entry: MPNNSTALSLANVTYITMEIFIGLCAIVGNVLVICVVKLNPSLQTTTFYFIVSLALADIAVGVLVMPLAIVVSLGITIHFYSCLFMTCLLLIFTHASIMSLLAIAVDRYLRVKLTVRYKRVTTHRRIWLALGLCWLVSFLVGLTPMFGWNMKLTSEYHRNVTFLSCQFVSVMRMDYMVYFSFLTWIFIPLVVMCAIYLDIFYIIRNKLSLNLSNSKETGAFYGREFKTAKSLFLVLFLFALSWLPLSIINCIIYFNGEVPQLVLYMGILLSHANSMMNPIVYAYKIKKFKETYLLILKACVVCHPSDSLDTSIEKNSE

Target: Adenosine receptor A3 (Homo sapiens, UniProt P0DMS8)

pKi: 9.00
SMILES: Cn1cc2c(nc(NC(=O)NC3CCCCC3)n3nc(-c4ccco4)nc23)n1
